Literature values in patent publication US20080153758A1, “Compounds Which Inhibits Protein Prenylation E.G. Geranylgeransferse or Farnesyltransferase Inhibitors for Treating Parkinson's Disease” (priority 2004, published 2008).

Amino acid sequences for entries named in this document (tags omitted).
UniProt P53609, whole entry: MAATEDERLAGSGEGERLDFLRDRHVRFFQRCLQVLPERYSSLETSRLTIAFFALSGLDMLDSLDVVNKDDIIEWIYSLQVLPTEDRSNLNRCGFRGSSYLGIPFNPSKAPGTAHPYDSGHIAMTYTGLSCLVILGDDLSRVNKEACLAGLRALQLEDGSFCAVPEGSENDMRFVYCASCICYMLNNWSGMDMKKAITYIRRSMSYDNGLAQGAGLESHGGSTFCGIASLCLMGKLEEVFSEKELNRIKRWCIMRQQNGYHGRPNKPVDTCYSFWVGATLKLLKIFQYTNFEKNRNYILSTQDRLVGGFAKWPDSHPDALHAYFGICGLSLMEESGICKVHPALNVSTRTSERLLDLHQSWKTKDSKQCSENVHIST
UniProt P49356, whole entry: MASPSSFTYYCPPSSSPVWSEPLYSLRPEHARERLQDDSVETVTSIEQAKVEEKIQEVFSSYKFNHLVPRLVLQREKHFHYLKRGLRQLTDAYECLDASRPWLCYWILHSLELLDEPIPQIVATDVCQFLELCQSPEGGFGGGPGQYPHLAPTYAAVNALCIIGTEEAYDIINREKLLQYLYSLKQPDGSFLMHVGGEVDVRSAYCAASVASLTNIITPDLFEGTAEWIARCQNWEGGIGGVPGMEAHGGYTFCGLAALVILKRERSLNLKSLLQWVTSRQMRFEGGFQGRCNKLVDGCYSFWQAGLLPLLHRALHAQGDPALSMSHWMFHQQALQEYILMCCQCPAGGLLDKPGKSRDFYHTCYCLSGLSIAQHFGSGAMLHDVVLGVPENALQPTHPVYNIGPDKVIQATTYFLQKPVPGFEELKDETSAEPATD

Experiments:
GGTase I = GGTase I (Homo sapiens, UniProt P49354+P53609); conditions: read-out: GGTase I / PGGTase-I IC50; cited from earlier work
FTase = FTase (Homo sapiens, UniProt P49354+P49356); conditions: read-out: FTase IC50; cited from earlier work

| SMILES | IC50 (GGTase I) | IC50 (FTase) |
| --- | --- | --- |
| Cn1cncc1C(OCc1ccc(C#N)cc1)c1ccc(C#N)c(-c2cccc3ccccc23)c1 (stereo not drawn) | 118 nM | 0.3 nM |
| Cn1cncc1C(OCc1ccc(C#N)cn1)c1ccc(C#N)c(-c2cccc3ccccc23)c1 (stereo not drawn) | – | 0.4 nM |
